Assay results reported in US9604998B2, “Inhibitors of the renal outer medullary potassium channel” (MERCK SHARP & DOHME CORP., priority 2013, dated 2017).
Where a name gives a salt, the structure may show the parent alone.

Amino acid sequences for entries named in this document (tags omitted).
UniProt P48048, whole entry, species assumed: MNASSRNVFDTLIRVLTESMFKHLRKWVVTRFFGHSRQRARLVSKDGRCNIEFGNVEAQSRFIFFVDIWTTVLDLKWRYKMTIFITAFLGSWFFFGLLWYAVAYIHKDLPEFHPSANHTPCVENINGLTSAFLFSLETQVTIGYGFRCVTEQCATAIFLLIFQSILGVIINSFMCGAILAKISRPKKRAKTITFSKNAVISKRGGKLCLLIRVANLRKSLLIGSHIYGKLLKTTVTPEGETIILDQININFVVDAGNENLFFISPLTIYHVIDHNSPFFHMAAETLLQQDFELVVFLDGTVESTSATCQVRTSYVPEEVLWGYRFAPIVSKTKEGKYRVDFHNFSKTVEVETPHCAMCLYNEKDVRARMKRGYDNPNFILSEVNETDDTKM

Key:
hROMK (hKir1.1) = hROMK (hKir1.1) (Homo sapiens (Human), UniProt P48048); experiment: Thallium Flux Assay (ROMK channel functional thallium flux, FLIPR-Tetra); format: cell-based; details: HEK293 cells stably expressing hROMK (hKir1.1)
Experimental: HEK293 cells stably expressing hROMK (hKir1.1) were grown at 37° C. in a 10% CO2 humidified incubator in complete growth media: Dulbecco's Modified Eagle Medium supplemented with non-essential amino acids, Penicillin/Streptomycin/Glutamine, G418 and FBS. At >80% confluency, aspirate the media from the flask and rinse with 10 mL Calcium/Magnesium-free PBS. […] To dislodge the cell, gently bang the side of the flask with your hand. Triturate the cells completely and then transfer the cells to 25 mL complete media. Centrifuge at 1,500 rpm for 6 min followed by resuspension in complete growth media and determine cell concentration. […] Under ideal growth conditions and appropriate tissue culture practices, this cell line is stable for 40-45 passages.
Compound Buffer (per microplate): 20 mL Probenecid/Assay Buffer; 0.3 mM ouabain (10 mM ouabain in water can be stored in amber bottle/aluminum foil at room temperature); Test compound
Stimulant Buffer (prepared at 5× final concentration in 1× FluxOR™ Chloride-Free Buffer): 7.5 mM Thallium sulfate and […] (to give a final assay concentration of 3 mM Thallium/0.3 mM Potassium). Store at 4° C. when not in use. If kept sterile, this solution is good for months.
The ROMK channel functional thallium flux assay is performed in 384 wells, using the FLIPR-Tetra instrument. HEK-hKir1.1 cells are seeded in Poly-D-Lysine microplates and kept in a 37° C.-10% CO2 incubator overnight. On the day of the experiment, the growth media is replaced with the FluxOR™ reagent loading buffer and incubated, protected from light, at ambient temperature (23-25° C.) for 90 min. The loading buffer is replaced with assay buffer±test compound followed by 30 min incubation at ambient temperature, where the Thallium/Potassium stimulant is added to the microplate.
1. Seed HEK-hKir1.1 cells (50 μl at 20,000 cells/well) in 384-well PDL coated Microplates
2. Allow cells to adhere overnight in humidified 37° C./10% CO2 incubator
3. Completely remove cell growth media from microplate and replace with 25 μl loading buffer
4. Incubate Microplate at room temperature, protected form light, for 90 min
5. Remove loading buffer and replace with 25 μl 1× Assay Buffer±test compound.
6. Incubate microplate at room temperature, protected from light, for 30 min
7. […] Excitation=400 nm, Emission=460 & 580 nm. Collect data for ˜10 min.
The fluorescence intensity of wells containing 3 μM of a standard control ROMK inhibitor of the present invention is used to define the ROMK-sensitive component of thallium flux. Fluorescence in the presence of test compounds is normalized to control values to provide % fluorescence change.

Kir1.1 (ROMK1) = Kir1.1 (ROMK1) (Homo sapiens (Human), UniProt P48048); experiment: Electrophysiology Assay (whole cell voltage clamp, IonWorks Quattro); format: cell-based; details: Chinese hamster ovary cells stably expressing Kir1.1; block during voltage step to 0 mV
Experimental: Chinese hamster ovary cells stably expressing Kir1.1 channels were maintained in T-75 flasks in cell culture media in a humidified 10% CO2 incubator at 37° C. Prior to an experiment, Kir1.1 expression was induced by overnight incubation with 1 mM sodium butyrate. […] After centrifugation, the cell pellet was resuspended in approximately 4.0 mL of bath solution and placed in the IonWorks instrument. The intracellular solution consisted of (in mM): 80 K gluconate, 40 KCl, 20 KF, 3.2 MgCl2, 3 EGTA, 5 Hepes, pH 7.4. Electrical access to the cytoplasm was achieved by perforation in 0.13 mg/mL amphotericin B for 4 min. […] Voltage protocols and current recordings were performed using the IonWorks HT software/hardware system. Currents were sampled at 1 kHz. No correction for liquid junction potentials was used. The test pulse, consisting of a 100 ms step to 0 mV from a holding potential of −70 mV, followed by a 100 ms voltage ramp from −70 mV to +70 mV, was applied before and after a 6 min compound incubation period. Test compounds were prepared by diluting DMSO stock solutions into the bath solution at 3× the final concentration and placed in the instrument in 96-well polypropylene plates. Current amplitudes were measured using the IonWorks software.

| Compound | IC50 (hROMK (hKir1.1)) [nM] | IC50 (Kir1.1 (ROMK1)) [nM] |
| --- | --- | --- |
| Cc1c([C@H]2CN3CCN(C[C@H](O)c4ccc5c(c4C)COC5=O)C[C@H]3CO2)ccc(F)c1C#N [Example 6, (3S,9aS)-3-(3-cyano-4-fluoro-2-methylphenyl)-8-[(2R)-2-hydroxy-2-(4-methyl-1-oxo-1,3-dihydro-2-benzofuran-5-yl)ethyl]octahydropyrazino[2,1-c][1,4]oxazin-5-ium trifluoroacetate] | 190 | – |
| COc1c(C(O)CN2CCN3C[C@@H](c4ccc5c(c4C)COC5=O)OC[C@@H]3C2)ccc(C#N)c1F (stereo partly drawn) [Example 34, (3R,9aS)-8-[2-(4-cyano-3-fluoro-2-methoxyphenyl)-2-hydroxyethyl]-3-(4-methyl-1-oxo-1,3-dihydro-2-benzofuran-5-yl)octahydropyrazino[2,1-c][1,4]oxazin-5-ium chloride] | – | 150 |
| COc1c(C(O)CN2CCN3C[C@@H](c4ccc5c(c4C)COC5=O)OC[C@H]3C2)ccc(C#N)c1F (single isomer, unassigned) [Example 41] | 230 | 140 |
| COc1c(C(O)CN2CCN3C[C@H](c4ccc5c(c4C)COC5=O)OC[C@@H]3C2)ccc(C#N)c1F (stereo partly drawn) [Example 40, (3S,9aS)-8-[2-(4-cyano-3-fluoro-2-methoxyphenyl)-2-hydroxyethyl]-3-(4-methyl-1-oxo-1,3-dihydro-2-benzofuran-5-yl)octahydropyrazino[2,1-c][1,4]oxazin-5-ium chloride] | 260 | 110 |
| Cc1c([C@@H]2CN3CCN(C[C@H](O)c4ccc5c(c4C)COC5=O)C[C@H]3CO2)ccc(F)c1C#N [Example 5, (3R,9aS)-3-(3-cyano-4-fluoro-2-methylphenyl)-8-[(2R)-2-hydroxy-2-(4-methyl-1-oxo-1,3-dihydro-2-benzofuran-5-yl)ethyl]octahydropyrazino[2,1-c][1,4]oxazin-5-ium trifluoroacetate] | 280 | 100 |
| COc1c(C(O)CN2CCN3C[C@@H](c4ccc5c(c4C)COC5=O)OC[C@@H]3C2)ccc(C#N)c1F (stereo partly drawn) [Example 39, (3R,9aS)-8-[2-(4-cyano-3-fluoro-2-methoxyphenyl)-2-hydroxyethyl]-3-(4-methyl-1-oxo-1,3-dihydro-2-benzofuran-5-yl)octahydropyrazino[2,1-c][1,4]oxazin-5-ium chloride] | 300 | – |
| Cc1c([C@@H]2CN3CCN(C[C@H](O)c4ccc5c(c4C)COC5=O)C[C@@H]3CO2)ccc(F)c1C#N [Example 8, (3R,9aR)-3-(3-cyano-4-fluoro-2-methylphenyl)-8-[(2R)-2-hydroxy-2-(4-methyl-1-oxo-1,3-dihydro-2-benzofuran-5-yl)ethyl]octahydropyrazino[2,1-c][1,4]oxazin-5-ium chloride] | 340 | – |
| COc1c(C(O)CN2CCN3C[C@@H](c4ccc5c(c4C)COC5=O)OC[C@H]3C2)ccc(C#N)c1F (stereo partly drawn) [Example 33, (3R,9aR)-8-[2-(4-cyano-3-fluoro-2-methoxyphenyl)-2-hydroxyethyl]-3-(4-methyl-1-oxo-1,3-dihydro-2-benzofuran-5-yl)octahydropyrazino[2,1-c][1,4]oxazin-5-ium chloride] | 600 | 170 |
| Cc1c([C@H]2CN3CCN(C[C@H](O)c4ccc5c(c4C)COC5=O)C[C@@H]3CO2)ccc(F)c1C#N [Example 7, (3S,9aR)-3-(3-cyano-4-fluoro-2-methylphenyl)-8-[(2R)-2-hydroxy-2-(4-methyl-1-oxo-1,3-dihydro-2-benzofuran-5-yl)ethyl]octahydropyrazino[2,1-c][1,4]oxazin-5-ium chloride] | 290 | 110 |
| COc1c(C(O)CN2CCN3C[C@H](c4ccc5c(c4C)COC5=O)OC[C@@H]3C2)ccc(C#N)c1F (stereo partly drawn) [Example 35, (3S,9aS)-8-[2-(4-cyano-3-fluoro-2-methoxyphenyl)-2-hydroxyethyl]-3-(4-methyl-1-oxo-1,3-dihydro-2-benzofuran-5-yl)octahydropyrazino[2,1-c][1,4]oxazin-5-ium chloride] | 270 | 130 |
